Data on five compounds can be found in ChEMBL document CHEMBL1147729, “(+)-(2R,5S)-4-[4-cyano-3-(trifluoromethyl)phenyl]-2,5-dimethyl-N-[6-(trifluoromethyl)pyridin-3-yl]piperazine-1-carboxamide (YM580) as an orally potent and peripherally selective nonsteroidal androgen receptor antagonist” (J Med Chem, 2006).

The chains behind the UniProt entries cited, without tags or fusion partners. Where a name states a change or a piece, a line headed by the entry shows the natural chain unless it says otherwise.
UniProt P10275: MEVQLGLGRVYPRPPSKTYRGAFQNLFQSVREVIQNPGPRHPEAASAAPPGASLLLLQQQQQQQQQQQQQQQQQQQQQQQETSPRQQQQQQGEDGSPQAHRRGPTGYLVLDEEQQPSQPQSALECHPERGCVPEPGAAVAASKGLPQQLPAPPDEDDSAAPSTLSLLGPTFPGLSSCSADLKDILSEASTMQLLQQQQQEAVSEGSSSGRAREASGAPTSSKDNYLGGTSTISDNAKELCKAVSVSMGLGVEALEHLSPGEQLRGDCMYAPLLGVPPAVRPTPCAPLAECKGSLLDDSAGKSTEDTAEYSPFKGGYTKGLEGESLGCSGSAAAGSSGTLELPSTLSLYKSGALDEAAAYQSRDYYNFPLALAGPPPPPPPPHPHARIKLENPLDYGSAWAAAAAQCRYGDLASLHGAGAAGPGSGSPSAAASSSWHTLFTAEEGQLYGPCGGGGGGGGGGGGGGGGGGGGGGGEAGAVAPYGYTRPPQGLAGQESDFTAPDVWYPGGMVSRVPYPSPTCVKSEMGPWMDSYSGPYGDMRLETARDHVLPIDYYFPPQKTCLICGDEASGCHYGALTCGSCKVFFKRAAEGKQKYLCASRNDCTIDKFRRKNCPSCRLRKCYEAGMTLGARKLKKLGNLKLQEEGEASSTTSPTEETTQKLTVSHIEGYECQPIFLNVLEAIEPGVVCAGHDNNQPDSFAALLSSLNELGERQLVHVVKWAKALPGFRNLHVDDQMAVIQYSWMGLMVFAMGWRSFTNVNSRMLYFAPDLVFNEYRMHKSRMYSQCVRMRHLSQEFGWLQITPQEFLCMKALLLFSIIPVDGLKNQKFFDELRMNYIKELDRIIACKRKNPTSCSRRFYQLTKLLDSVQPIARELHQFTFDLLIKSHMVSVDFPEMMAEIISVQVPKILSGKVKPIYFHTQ

In general, Ki refers to the dissociation constant of the complex between target and ligand, obtained from inhibition or displacement. Read a high Ki as a looser hold on the target. In general, IC50 refers to the concentration at which inhibition is half-maximal.

Each structure is given as a SMILES string.

For the first test, the target named is T1, Androgen receptor (Homo sapiens, UniProt P10275). As to the kind of experiment: Inhibition of human AR.
In the case of `C[C@@H]1CN(c2ccc(C#N)c(C(F)(F)F)c2)[C@@H](C)CN1C(=O)Nc1ccc(C(F)(F)F)nc1` (racemic), the affinity corresponds to a Ki of 4.6 nM.

The next test concerns the target T1, Androgen receptor.
As for `C[C@@H]1CN(C(=O)Nc2ccc(C(F)(F)F)nc2)[C@@H](C)CN1c1ccc(C#N)c(C(F)(F)F)c1`, 1300 nM corresponded to half-maximal inhibition (IC50).
`C[C@@H]1CN(c2ccc(C#N)c(C(F)(F)F)c2)[C@@H](C)CN1C(=O)Nc1ccc(C(F)(F)F)nc1` (racemic) yielded an IC50 of 110 nM.
As to `COc1ccncc1NC(=O)N1C[C@H](C)N(c2ccc(C#N)c(C(F)(F)F)c2)C[C@H]1C` (racemic), the IC50 was found to be 1200 nM.
Still for that read-out and setting: under `C[C@@H]1CN(c2ccc(C#N)c(C(F)(F)F)c2)[C@@H](C)CN1C(=O)Nc1ccncc1` (racemic) stands 140 nM.
For `CC1CN(c2ccc(C#N)c(C(F)(F)F)c2)C(C)CN1C(=O)Nc1ccc(C(F)(F)F)nc1` (racemic), it took 210 nM to reach half-maximal inhibition (IC50).
